## Yeast mating assay 1: variants of the scFv Ab-14

Data: MIT Lincoln Laboratory AlphaSeq set, Engelhart et al. 2022, doi:10.1038/s41597-022-01779-4, as distributed in FLAb.

Binding partner: SARS-CoV-2 spike HR2 peptide, sequence PDVDLGDISGINAS.

Parent: Ab-14, a human scFv built as VH, three GGGGS repeats, VL. Only the CDRs of the heavy chain vary.
VH: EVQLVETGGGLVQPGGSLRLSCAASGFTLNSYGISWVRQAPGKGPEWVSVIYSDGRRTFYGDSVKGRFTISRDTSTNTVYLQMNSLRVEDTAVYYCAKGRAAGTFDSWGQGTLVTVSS
VL: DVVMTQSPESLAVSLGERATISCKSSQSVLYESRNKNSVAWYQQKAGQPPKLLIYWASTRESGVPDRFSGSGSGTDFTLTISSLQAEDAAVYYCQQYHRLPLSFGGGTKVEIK

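The parent was found by panning a naive human phage display library on the peptide. Library AAYL49 holds single substitutions and randomly drawn double and triple substitutions in the CDRs. Affinity was read by AlphaSeq, a pooled yeast mating assay with surface-displayed partners. Pairs that bind mate more often; barcode pairs of the diploids are counted by sequencing. Read counts were normalised to the haploid input and turned into Kd by a linear fit to BCL2-family pairs of known affinity, for each replicate. The assay was run in three technical replicates.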

Variants are written as CDR1, CDR2 and CDR3 of the heavy chain (limits as in the source). Parent: GFTLNSYGIS, VIYSDGRRTFYGDSVK, GRAAGTFDS. All variants listed here change I51 of the VH, counted from its first residue. Affinities are written as log10 Kd with Kd in nM; a lower number is a better binder. The mean shown is taken over the replicates in which the pair was detected. Where no diploid with the target was found in any replicate, the entry reads "no signal": below detection, most likely a poor binder, though not proof of it. Three control strains display no target. For library AAYL49, 15% of the pairings with them gave a signal, with a median of 4.06 and one signal in twenty below 2.83, so weak values seen in few replicates may be background. Parent in this assay: reference entry 0.65, copy in this library 4.11 (one replicate of three).

CDR-H1,CDR-H2,CDR-H3,"mean, log10 nM",seen in
GFRLNSYGIS,VFYSDGRRTFYGDSVK,GRWAGTFDS,no signal,0 of 3
GFTLNSYGIS,VLYSDGRRTFYGDSVW,GRAAGTFDS,3.37,2 of 3
GFTLNSYGIS,VSYSDGRRVFYGDSVK,GRAAGTWDS,3.32,2 of 3
SFTLNSYGIS,VASSDGRRTFYGDSVK,GRAAGTFDS,no signal,0 of 3
GFTLWSYGIS,VWYSDGRRTFYGDSVK,YRAAGTFDS,3.35,2 of 3
GFTLFSYGIS,VQYSDGRRTFYGDSVK,GAAAGTFDS,no signal,0 of 3
GFTLNSYGID,VQYSDGRRTFYGDSVK,GRQAGTFDS,3.88,1 of 3
GQWLNSYGIS,VHYSDGRRTFYGDSVK,GRAAGTFDS,no signal,0 of 3
GFTLNFYGIS,VMYSFGRRTFYGDSVK,GRAAGTFDS,no signal,0 of 3
GFTLNSYGIS,VWSSDGRRTFYGDSVK,GRMAGTFDS,no signal,0 of 3
GFTLNSRGIS,VEYSDGRRTFYGDSVK,GRAAGTVDS,4.27,1 of 3
GFTLNSYGIS,VPYSDGRSTFYGDSVK,GRAASTFDS,4.55,2 of 3
GFTLNSYGIS,VKYGDGRRTFYEDSVK,GRAAGTFDS,5.51,1 of 3
GFTLNSYGIS,VCYSDGRRTPYGDSVK,GEAAGTFDS,3.19,2 of 3
GFMLNSYGIS,VHYSDGRRTFYGDSVK,GRAAGTFDS,4.20,2 of 3
GFTLNSYGIS,VVYSDGRRTEYGDSVK,GRAATTFDS,2.77,3 of 3
GYTLNSYGIS,VWYSDGRRTFYGDSVK,LRAAGTFDS,no signal,0 of 3
GFTLNSYGIS,VRYSDGRRTFYGDSVK,GYAAGWFDS,4.66,1 of 3
GATLNSYGIS,VGYSDGRRTFYGASVK,GRAAGTFDS,4.59,3 of 3
GFTLNSYGWS,VKYSDGRRTFYGDSVK,GRAAGKFDS,no signal,0 of 3
GFTLNSYGQS,VQYSDGRRTFYGDSVK,GRAAGTFDS,4.55,1 of 3
GFTLNSYGIS,VQYSDGRPTFYIDSVK,GRAAGTFDS,no signal,0 of 3
GFALNSYGIS,VKYSDGRRHFYGDSVK,GRAAGTFDS,no signal,0 of 3
GFKLNSYGIS,VFYSDGRRTFYGDSVK,GRAAGTFDS,no signal,0 of 3
GFTLNSYGIS,VSYSEGRRTFYGDSVK,GRAAKTFDS,no signal,0 of 3
GFTLNSYGIS,VSYSCGRRTFYGDSVK,GRAAFTFDS,4.64,2 of 3
GFCLNSYGIS,VMYSDGRRTFYGDSVL,GRAAGTFDS,3.20,3 of 3
GFTLNSYGIS,VTYSDGRRTFYGDSVK,WRAAGTFDS,4.89,1 of 3
GFTLNSYGIS,VWYSVGRRTFYGDSVK,GRAAGAFDS,3.66,1 of 3
GFTLNSYGIS,VKYSDMRETFYGDSVK,GRAAGTFDS,no signal,0 of 3
GFTLNSYGIS,VCYYDFRRTFYGDSVK,GRAAGTFDS,no signal,0 of 3
GFTLNRYGIS,VKYSDGRRTFYGDSVK,ERAAGTFDS,no signal,0 of 3
GFTLNSYGIS,VAYSDGRWTFYGDSVK,GRAAGTFDS,no signal,0 of 3
GFTLNSYGIS,VCYSDVRRTFYGDLVK,GRAAGTFDS,no signal,0 of 3
GFTLNSYGIS,PWYSDGRRTFYGDSVK,GRNAGTFDS,3.87,1 of 3
GFTLNSYGIS,VNYSDGRRCFYGDSVK,GRHAGTFDS,no signal,0 of 3
GFTLNSYGIS,VKYSDGRRTFYGDSVK,GRAAVTQDS,4.03,1 of 3
GFTLNSYGIS,VRYTDGRHTFYGDSVK,GRAAGTFDS,4.19,2 of 3
GFTLNSYGIS,VWYSDGRRTKYGDSVK,GRAAGTFDS,no signal,0 of 3
GFTLNSYGQS,VWYSDGRRTFYGDSVK,GRAAGGFDS,no signal,0 of 3
GFTLNSYGIS,RHYSQGRRTFYGDSVK,GRAAGTFDS,3.29,1 of 3
GFTLNSYGIS,VEYSDVRRTFYGDSVK,GRMAGTFDS,3.22,1 of 3
GFTLKSYGIF,VSYSDGRRTFYGDSVK,GRAAGTFDS,4.58,1 of 3
GKTLNSYGIS,VWYSDGRRTFYGDSVK,GRAAGTEDS,no signal,0 of 3
EFTLNSYGIS,LAYSDGRRTFYGDSVK,GRAAGTFDS,no signal,0 of 3
GFTLNSYGIS,VAYSDGRRTFYGDSVK,ARAAGTFDH,3.53,1 of 3
GFTLNSYGIS,VLDSDGRRTFYGDSVK,GRAAGTRDS,no signal,0 of 3
GFTLNSYGIS,VCISDGRRTSYGDSVK,GRAAGTFDS,no signal,0 of 3
GFTLNSYGIS,VKYSDGRSTFYGDSWK,GRAAGTFDS,no signal,0 of 3
GFTLMSYGIS,VFYSDGRRTFYGDSVK,GRAAGTFDS,no signal,0 of 3
GFTLNSYGIS,VCYSDGRRTFYGESVK,GRAAGTFDE,4.39,1 of 3
GFTFNSYGIS,VFYSDGRRTFYGDSVK,GNAAGTFDS,no signal,0 of 3
GYTLNSYGIS,VYYSDGRRTFYADSVK,GRAAGTFDS,no signal,0 of 3
GFTMNSYGIS,VPYSDCRRTFYGDSVK,GRAAGTFDS,4.74,2 of 3
GFTLNSYGIS,VFYSDGRRTFCGDVVK,GRAAGTFDS,no signal,0 of 3
GFTLNSYGIS,VRYSDGRTTFYGDSVK,GRAAGTFDS,no signal,0 of 3
GFTLNSYGIQ,VTYSDGRRTFYGDSVK,GRARGTFDS,4.49,2 of 3
GFTLNSIGIS,VDYSDGRRTFYGDSVK,GRAAGIFDS,3.42,1 of 3
GFTLNSYGIS,VWYSDGRRTFYGDTVK,GRAAGTFDS,no signal,0 of 3
GFTHNSYGIS,PQYSDGRRTFYGDSVK,GRAAGTFDS,4.96,2 of 3
GFTLNSYGPS,VKYSDGRRTFYHDSVK,GRAAGTFDS,4.49,2 of 3

Picked from the list: the 3 lowest averages where every replicate gave a value.

{"CDR-H1": "GFTLNSYGIS", "CDR-H2": "VVYSDGRRTEYGDSVK", "CDR-H3": "GRAATTFDS", "mean, log10 nM": "2.77", "seen in": "3 of 3"}
{"CDR-H1": "GFCLNSYGIS", "CDR-H2": "VMYSDGRRTFYGDSVL", "CDR-H3": "GRAAGTFDS", "mean, log10 nM": "3.20", "seen in": "3 of 3"}
{"CDR-H1": "GATLNSYGIS", "CDR-H2": "VGYSDGRRTFYGASVK", "CDR-H3": "GRAAGTFDS", "mean, log10 nM": "4.59", "seen in": "3 of 3"}